Laboratory results from ChEMBL document CHEMBL5356965, “Discovery and biological evaluation of novel dual PTP1B and ACP1 inhibitors for the treatment of insulin resistance” (Bioorg Med Chem, 2024).

Assay: in vitro
Details: human, HepG2 cells

## COc1cc(/C=C2/NC(=O)N(Cc3ccc(C)cc3)C2=O)ccc1OCc1cccc(C(=O)O)c1
  viability at 48 h, 200 µM: > 80%
